Laboratory results as given in ChEMBL document CHEMBL3886874, “Substituted aza-bicyclic imidazole derivatives useful as TRPM8 receptor modulators” (2016).

Protein sequences, listed by entry. Tags and fused reporters are not part of them.
UniProt Q1A7N1, whole entry: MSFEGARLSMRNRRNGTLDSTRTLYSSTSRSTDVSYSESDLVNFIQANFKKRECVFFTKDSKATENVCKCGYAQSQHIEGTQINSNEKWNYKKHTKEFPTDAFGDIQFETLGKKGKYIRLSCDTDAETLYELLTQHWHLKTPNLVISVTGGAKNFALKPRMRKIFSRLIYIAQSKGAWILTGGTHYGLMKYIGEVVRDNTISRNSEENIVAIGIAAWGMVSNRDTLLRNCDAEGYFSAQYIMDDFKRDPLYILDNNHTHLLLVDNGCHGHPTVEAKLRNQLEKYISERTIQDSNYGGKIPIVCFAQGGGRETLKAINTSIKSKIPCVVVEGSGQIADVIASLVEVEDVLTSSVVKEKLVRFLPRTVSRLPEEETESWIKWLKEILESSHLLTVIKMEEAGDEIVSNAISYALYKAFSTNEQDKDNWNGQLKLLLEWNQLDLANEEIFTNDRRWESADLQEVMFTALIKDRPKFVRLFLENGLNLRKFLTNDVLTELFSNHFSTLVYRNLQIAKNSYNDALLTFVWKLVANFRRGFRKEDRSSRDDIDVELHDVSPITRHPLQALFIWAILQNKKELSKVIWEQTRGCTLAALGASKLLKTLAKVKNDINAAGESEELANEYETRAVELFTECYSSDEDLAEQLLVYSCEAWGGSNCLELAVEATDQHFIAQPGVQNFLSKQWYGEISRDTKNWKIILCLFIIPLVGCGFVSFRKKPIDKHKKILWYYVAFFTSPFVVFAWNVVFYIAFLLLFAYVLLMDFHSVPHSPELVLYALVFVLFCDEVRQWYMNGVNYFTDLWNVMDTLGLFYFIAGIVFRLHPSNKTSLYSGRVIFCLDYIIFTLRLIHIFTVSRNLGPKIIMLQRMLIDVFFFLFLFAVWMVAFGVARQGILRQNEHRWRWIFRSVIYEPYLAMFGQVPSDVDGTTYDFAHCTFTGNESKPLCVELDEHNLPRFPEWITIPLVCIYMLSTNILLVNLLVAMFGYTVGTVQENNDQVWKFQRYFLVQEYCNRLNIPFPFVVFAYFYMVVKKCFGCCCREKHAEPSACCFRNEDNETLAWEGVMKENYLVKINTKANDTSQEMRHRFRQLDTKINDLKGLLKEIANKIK

Molecular target: Transient receptor potential M8 protein (Canis lupus familiaris, UniProt Q1A7N1)
Test: Functional Assay: HEK293 cells stably expressing canine TRPM8 were routinely grown as monolayers in Dulbecco's minimum essential medium supplemented with 10% FBS, 2 mM L-glutamine, 100 units/mL penicillin, 100 μg/mL streptomycin and 400 μg/mL G418. Cells were maintained in 5% CO2 at 37° C. At 24 hr prior to assay, cells were seeded in black wall, clear-base poly-D-lysine coated 384-well plates (BD Biosciences, NJ, USA) at a density of 5,000 cells per well in culture medium and grown overnight in 5% CO2 at 37° C. On assay day, growth media was removed, and cells were loaded with Calcium 3 Dye (Molecular Devices) for 35 min at 37° C., under 5% CO2 and then incubated for 25 min at room temperature and atmosphere. Subsequently, cells were tested for agonist-induced increases in intracellular Ca2+ levels using FLIPR™ or FDSS. Cells were treated with compounds of the formula (I) at varying concentrations and intracellular Ca2+ was measured for 5 min prior to the addition of icilin to each well to achieve a final concentration that produces an approximately 80% maximal response.
Assay type: cell-based

Compound: COc1nc(-c2c(Cl)cccc2Cl)cc2nc(-c3c(Cl)c(C(C)(C)C)nn3C)[nH]c12
- IC50: 5.4 nM
